{"sequences": {"note": "Chains of the proteins cited; added tags and fusions are not shown.", "UniProt P31652, whole entry": "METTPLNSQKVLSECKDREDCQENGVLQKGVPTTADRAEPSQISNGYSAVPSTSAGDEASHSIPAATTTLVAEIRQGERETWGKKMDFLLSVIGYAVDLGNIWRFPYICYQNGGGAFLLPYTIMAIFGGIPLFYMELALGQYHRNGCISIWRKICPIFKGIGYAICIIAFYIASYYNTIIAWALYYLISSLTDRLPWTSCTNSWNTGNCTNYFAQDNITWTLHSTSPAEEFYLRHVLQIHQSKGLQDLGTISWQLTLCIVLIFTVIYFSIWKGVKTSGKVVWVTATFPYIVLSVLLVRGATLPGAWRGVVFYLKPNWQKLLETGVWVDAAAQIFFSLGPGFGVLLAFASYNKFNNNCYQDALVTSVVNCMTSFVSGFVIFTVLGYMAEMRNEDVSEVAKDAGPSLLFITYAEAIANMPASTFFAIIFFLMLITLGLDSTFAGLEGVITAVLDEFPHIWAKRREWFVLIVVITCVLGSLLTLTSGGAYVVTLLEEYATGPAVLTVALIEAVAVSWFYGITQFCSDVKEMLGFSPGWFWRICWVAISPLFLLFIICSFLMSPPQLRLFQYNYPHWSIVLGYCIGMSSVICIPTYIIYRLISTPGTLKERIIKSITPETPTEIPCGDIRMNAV"}, "source": "ChEMBL document CHEMBL1136760", "about": "(J Med Chem, 2003)", "target": "Sodium-dependent serotonin transporter (Rattus norvegicus, UniProt P31652)", "assay": "Inhibition of [3H]citalopram binding to Serotonin transporter (5-HTT) in rat cortical tissue.", "outline": "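Rat cortical P2 fraction homogenized in 16 volumes of ice-cold 25 mM sodium phosphate, pH 7.7. [3H]citalopram at 2 nM final; 1 µM clomipramine defines nonspecific binding. Usually seven drug concentrations, triplicates, organic solvent ≤0.3 vol %. Incubated 3 h at 0 °C, then filtered on PEI-soaked glass fibre and counted. IC50 and Hill coefficients from dose-response curves.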", "data": [{"molecule": "COC(=O)[C@H]1[C@@H](OC(=O)c2ccccc2)C[C@@H]2CC[C@H]1N2C", "note": "[COCAINE]", "values": [{"measurement": "IC50", "value": 0.389, "unit": "µM"}]}]}
